# Apparent affinities of Ab-95 variants for a coronavirus HR2 peptide

Source: Engelhart et al. 2022 (doi:10.1038/s41597-022-01779-4), MIT Lincoln Laboratory and A-Alpha Bio; data file from the FLAb repository.

Target: peptide PDVDLGDISGINAS, taken from heptad repeat 2 (HR2) of SARS-CoV-2 spike.

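The parent was found by panning a naive human phage display library on the peptide. The library (AAYL52) carries one to three amino acid substitutions per variant, with no insertions or deletions. Affinity was read by AlphaSeq, a pooled yeast mating assay with surface-displayed partners. Binding brings cells together so that they mate, and sequencing counts the barcode pairs among the diploids. Scores were corrected for input abundance and mapped to Kd with protein pairs of known affinity run in the same pool. There are three technical replicates.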

The variants keep the heavy chain, the linker and the frameworks of Ab-95 (scFv order VH, three GGGGS repeats, VL).
VH: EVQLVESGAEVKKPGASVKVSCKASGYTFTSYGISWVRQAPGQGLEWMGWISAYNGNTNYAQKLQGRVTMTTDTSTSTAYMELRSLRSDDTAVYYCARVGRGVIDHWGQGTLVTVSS
VL: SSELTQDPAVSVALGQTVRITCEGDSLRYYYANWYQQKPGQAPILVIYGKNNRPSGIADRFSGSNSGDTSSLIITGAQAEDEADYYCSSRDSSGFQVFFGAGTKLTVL

Changes read parent residue, position, new residue, counted from the first residue of the VL shown. Kd is apparent (estimated from mating counts) and averaged on the log scale over replicates with a signal. Smaller is tighter. "nd" marks a missing value. The strain was present, yet no cells mated with the target were sequenced in any replicate, which points to weak or no binding.

changes | apparent Kd | seen in
G24D G94A F95Y | 8.0 µM | 2 of 3
E23Y P54Q Q96V | 1.2 µM | 3 of 3
D25V L27S Y29W | 460 nM | 3 of 3
G24S Y30P A32S | 260 nM | 3 of 3
N51L S89D V97K | nd | 0 of 3
E23Q Y29W K50C | 8.6 µM | 3 of 3
R28M Y31P R90S | 8.0 nM | 3 of 3
R28M N33V R90C | nd | 0 of 3
E23P S26Q N51T | 18 µM | 3 of 3
Y29S N33G N52D | nd | 0 of 3
N51L P54I S88F | 100 µM | 1 of 3
K50L S93K V97D | 300 nM | 1 of 3
E23Y R90Y F95P | 1.2 µM | 1 of 3
R90T F95M V97T | nd | 0 of 3
Y29P R90L S92K | 5.8 µM | 1 of 3
N52L S88H R90D | 170 nM | 3 of 3
Y30L P54F V97C | 2.1 µM | 1 of 3
N52T R90N G94W | 920 nM | 2 of 3
R53L S93A G94R | 13 µM | 2 of 3
Y30C S55I | 4.2 µM | 2 of 3
D25V S55F S89P | 6.6 µM | 2 of 3
Y30T D91V F98W | 30 µM | 2 of 3
D25M Y30G N52E | 2.3 nM | 3 of 3
G24D Y29R V97F | 16 µM | 2 of 3
A32V N51L R90M | 140 µM | 2 of 3
R28V K50N N52A | 340 nM | 3 of 3
G24L R90S Q96P | 1.8 µM | 1 of 3
E23D A32S N52S | 1.7 µM | 3 of 3
Y30I P54R F98K | 590 µM | 1 of 3
D25E S26P Y29I | 1.2 µM | 3 of 3
K50T R90P Q96T | 3.1 µM | 3 of 3
D25P S26H F98G | 1.4 µM | 3 of 3
E23D R28D G49H | nd | 0 of 3
G24A N33R S92K | nd | 0 of 3
E23R A32E Q96H | 1.4 µM | 1 of 3
Y30Q Y31T P54S | 4.4 nM | 3 of 3
K50R N51K F98M | 26 µM | 2 of 3
K50A Q96A | 2.1 µM | 3 of 3
G24N A32M P54L | 2.0 µM | 1 of 3
S26Y N52P F95E | 70 µM | 2 of 3
Y31S N52H F95Q | 2.1 µM | 3 of 3
G24E N33A R53A | 7.0 µM | 2 of 3
Y29A G49E R53Q | 11 µM | 2 of 3
R28C P54E | 3.0 µM | 3 of 3
S26K L27F A32G | nd | 0 of 3
E23C S88Y S89T | nd | 0 of 3
G24D R28G S88G | 28 µM | 2 of 3
R53I P54S F95P | 7.0 µM | 3 of 3
A32M G49F S55K | 120 µM | 1 of 3
S26A R28H N33M | 3.9 µM | 3 of 3
R53E S55K S93A | nd | 0 of 3
G49D P54D G94H | 23 µM | 2 of 3
Y31D F98H | 9.4 nM | 3 of 3
G24Q Y29A G49K | 2.8 µM | 1 of 3
D25V G49V N51Q | 10 µM | 1 of 3
N51I S88F D91Y | 47 µM | 1 of 3
L27Y S55N V97L | nd | 0 of 3
Y30A Y31F R90G | 150 nM | 3 of 3
E23R A32S F98K | 2.7 µM | 3 of 3
N51R V97P | 2.4 µM | 1 of 3
Y31K R90S S93K | 4.1 µM | 1 of 3
S26V N33K G49S | 13 µM | 1 of 3
N33W K50M S89C | 330 nM | 2 of 3
G24A Y29L S89D | 31 µM | 3 of 3
G49D R53Q S55N | 5.0 µM | 2 of 3
Y30W A32I K50I | 3.0 µM | 3 of 3
S26D Y31D S88K | 12 nM | 3 of 3
Y29R S55K S88R | 1.5 µM | 3 of 3
N33Q P54R | 6.3 µM | 1 of 3
A32W R53M S93R | 2.1 µM | 2 of 3
G49F S89T R90C | 4.5 µM | 1 of 3
G49C Q96C F98V | 17 µM | 1 of 3

Picked from the list: the 9 lowest averages where every replicate gave a value.

changes | apparent Kd | seen in
D25M Y30G N52E | 2.3 nM | 3 of 3
Y30Q Y31T P54S | 4.4 nM | 3 of 3
R28M Y31P R90S | 8.0 nM | 3 of 3
Y31D F98H | 9.4 nM | 3 of 3
S26D Y31D S88K | 12 nM | 3 of 3
Y30A Y31F R90G | 150 nM | 3 of 3
N52L S88H R90D | 170 nM | 3 of 3
G24S Y30P A32S | 260 nM | 3 of 3
R28V K50N N52A | 340 nM | 3 of 3

Empty control strains, which show no peptide, gave a signal in 28% of pairings with library AAYL52; the median was 8.2 µM and 95% of these signals were weaker than 800 nM. No background was subtracted.